Measurements from patent publication US5596072.

Legend:
[1] = target: hIL-4R-S protein on Ba/F3 cells (hIL-4R ligand-binding protein deleted for most of the intracellular domain) (human) (UniProt P24394); test: displacement of I^125-hIL-4 from Ba/F3 hIL-4R-S cells
[2] = target: functional human IL-4 receptor (hIL-4R) on TF-1 cells (human) (UniProt P24394); test: competitive displacement of I^125-hIL-4 from TF-1 cells
[3] = target: hIL-4R-S protein on Ba/F3 cells (hIL-4R ligand-binding protein deleted for most of the intracellular domain) (human) (UniProt P24394); test: displacement of I^125-hIL-4 from Ba/F3 hIL-4R-S cells, Ligand computer program
[4] = target: functional human IL-4 receptor (hIL-4R) on TF-1 cells (human) (UniProt P24394); test: displacement of I^125-hIL-4 from TF-1 cells
[5] = target: functional human IL-4 receptor (hIL-4R) on TF-1 cells (human) (UniProt P24394); test: competitive displacement of I^125-hIL-4, TF-1 against Ba/F3 hIL-4R-S cells

| Substance | fold less avid binding than hIL-4 [1] [fold] | fold lower affinity than hIL-4 [2] [fold] | Kd [3] [nM] | IC50 [4] [nM] | IC50 [1] [nM] | fold higher apparent affinity than for Ba/F3 hIL-4R-S cells [5] [fold] |
| --- | --- | --- | --- | --- | --- | --- |
| hIL-4.Y124D (hIL-4.Tyr124 to Asp) (from UniProt P05112) (ligand) | 3.5 | 50 | 0.62 | – | – | – |
| human interleukin-4 (hIL-4) (from UniProt P05112) (ligand) | – | – | 0.16 | 0.002 | 0.2 | 50 |
